Experimental findings from ChEMBL document CHEMBL1156305, “Orally active and brain permeable proline amides as highly selective 5HT2c agonists for the treatment of obesity” (Bioorg Med Chem Lett, 2010) are described below.

Protein sequences, listed by entry. Tags and fused reporters are not part of them.
UniProt P41595, whole entry: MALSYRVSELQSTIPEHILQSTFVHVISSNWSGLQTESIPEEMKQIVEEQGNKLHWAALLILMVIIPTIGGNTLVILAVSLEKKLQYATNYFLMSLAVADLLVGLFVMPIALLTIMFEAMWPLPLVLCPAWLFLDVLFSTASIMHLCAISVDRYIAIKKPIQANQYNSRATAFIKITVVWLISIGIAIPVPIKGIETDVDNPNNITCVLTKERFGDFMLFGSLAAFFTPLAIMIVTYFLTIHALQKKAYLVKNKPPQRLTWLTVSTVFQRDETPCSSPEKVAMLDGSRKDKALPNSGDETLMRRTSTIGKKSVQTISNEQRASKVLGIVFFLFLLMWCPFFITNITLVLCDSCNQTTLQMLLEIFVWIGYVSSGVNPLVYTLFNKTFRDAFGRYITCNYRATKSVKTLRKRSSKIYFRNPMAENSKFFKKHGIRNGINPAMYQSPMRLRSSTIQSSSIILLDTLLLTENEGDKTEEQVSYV

This assay deals with 5-hydroxytryptamine receptor 2B (Homo sapiens, UniProt P41595). Kind of assay: Agonist activity at 5HT2B receptor relative to control. Format: functional.

On to `COc1cc(OCC2CCCCC2)c(F)cc1CNC(=O)[C@@H]1CCCN1`, for which the Activity was found to be 20%.
